The values that follow are results of earlier work, collected in article PMC9260974 (BMC Pharmacology & Toxicology, 2022).

The conditions of the series: lisinopril; cited from earlier work.

For the molecule `NCCCC[C@H](N[C@@H](CCc1ccccc1)C(=O)O)C(=O)N1CCC[C@H]1C(=O)O` [lisinopril], the Plasma protein binding result was “does not bind to other plasma proteins other than ACE” and the Solubility entry was “high solubility”.
